The chains behind the UniProt entries cited, without tags or fusion partners.
UniProt P00533, whole entry: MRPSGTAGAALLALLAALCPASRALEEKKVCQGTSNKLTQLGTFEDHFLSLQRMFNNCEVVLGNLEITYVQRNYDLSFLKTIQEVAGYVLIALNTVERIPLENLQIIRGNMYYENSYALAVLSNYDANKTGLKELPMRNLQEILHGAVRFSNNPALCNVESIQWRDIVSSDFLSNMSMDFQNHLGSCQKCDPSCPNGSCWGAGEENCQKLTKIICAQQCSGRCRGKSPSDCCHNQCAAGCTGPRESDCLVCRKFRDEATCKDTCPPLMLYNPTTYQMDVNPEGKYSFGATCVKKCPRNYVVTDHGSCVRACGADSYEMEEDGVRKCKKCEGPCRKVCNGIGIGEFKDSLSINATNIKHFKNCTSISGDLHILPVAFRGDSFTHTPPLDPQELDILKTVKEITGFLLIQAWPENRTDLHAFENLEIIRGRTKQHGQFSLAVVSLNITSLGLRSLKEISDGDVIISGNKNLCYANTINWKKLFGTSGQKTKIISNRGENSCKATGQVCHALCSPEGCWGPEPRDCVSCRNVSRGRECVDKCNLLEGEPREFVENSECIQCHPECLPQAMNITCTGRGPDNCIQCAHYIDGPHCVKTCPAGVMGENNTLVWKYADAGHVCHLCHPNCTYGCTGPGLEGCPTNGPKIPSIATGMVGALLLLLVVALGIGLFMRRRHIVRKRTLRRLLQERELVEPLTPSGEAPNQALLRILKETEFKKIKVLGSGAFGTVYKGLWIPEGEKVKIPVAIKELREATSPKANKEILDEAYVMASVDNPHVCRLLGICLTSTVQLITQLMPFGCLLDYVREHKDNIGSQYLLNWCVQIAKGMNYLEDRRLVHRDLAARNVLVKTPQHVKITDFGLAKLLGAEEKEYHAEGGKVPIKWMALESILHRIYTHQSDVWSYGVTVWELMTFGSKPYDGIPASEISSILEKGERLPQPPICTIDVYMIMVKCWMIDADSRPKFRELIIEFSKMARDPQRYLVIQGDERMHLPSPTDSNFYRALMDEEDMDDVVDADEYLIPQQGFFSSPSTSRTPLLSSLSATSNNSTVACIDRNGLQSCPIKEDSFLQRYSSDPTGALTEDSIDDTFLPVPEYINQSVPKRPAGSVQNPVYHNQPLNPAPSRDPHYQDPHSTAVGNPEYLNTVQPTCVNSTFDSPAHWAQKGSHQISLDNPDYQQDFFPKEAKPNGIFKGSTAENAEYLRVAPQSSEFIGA

According to ChEMBL document CHEMBL1138126, “Tyrosine kinase inhibitors. 19. 6-Alkynamides of 4-anilinoquinazolines and 4-anilinopyrido[3,4-d]pyrimidines as irreversible inhibitors of the erbB family of tyrosine kinase receptors” (J Med Chem, 2006):

Tests used:
[1] = molecular target: T1, Epidermal growth factor receptor (Homo sapiens, UniProt P00533); assay: Inhibition of erbB1 fusion protein expressed in baculovirus by ELISA
[2] = molecular target: T1, Epidermal growth factor receptor; assay: Inhibition of EGF stimulated human erbB1 autophosphorylation in NIH3T3 cells

IC50 [1]: 4.2 nM | IC50 [2]: 11 nM
Structure (SMILES): CC(C)N(CC#CC(=O)Nc1ccc2ncnc(Nc3ccc(F)c(Cl)c3)c2c1)C(C)C
